Source: patent US12171806B2, “Therapeutic regimens and methods for lowering blood glucose and/or body weight using GLP-1R and GCGR balanced agonists” (priority 2021, dated 2024)

Assay: Phase 1 MAD study of ALT-801: adverse events (TEAEs), safety overview

CC[C@H](C)[C@H](NC(=O)[C@H](Cc1ccccc1)NC(=O)[C@H](CCC(=O)O)NC(=O)[C@@H]1CCCCNC(=O)CC[C@H](NC(=O)[C@H](CC(=O)O)NC(=O)[C@H](CC(C)C)NC(=O)[C@H](Cc2ccc(O)cc2)NC(=O)[C@H](CCCCN)NC(=O)[C@H](CO)NC(=O)[C@H](Cc2ccc(O)cc2)NC(=O)[C@H](CC(=O)O)NC(=O)[C@H](CO)NC(=O)[C@@H](NC(=O)[C@H](Cc2ccccc2)NC(=O)[C@@H](NC(=O)CNC(=O)[C@H](CCC(N)=O)NC(=O)C(C)(C)NC(=O)[C@@H](N)Cc2c[nH]cn2)[C@@H](C)O)[C@@H](C)O)C(=O)N[C@@H](CCCCNC(=O)[C@H]2O[C@@H](OCCCCCCCCCCCCCCCCCC(=O)O)[C@H](O)[C@@H](O)[C@@H]2O)C(=O)N[C@@H](C)C(=O)N[C@@H](C)C(=O)N1)C(=O)N[C@@H](CCC(N)=O)C(=O)N[C@@H](Cc1c[nH]c2ccccc12)C(=O)N[C@@H](CC(C)C)C(=O)N[C@@H](CC(C)C)C(=O)N[C@@H](CCC(N)=O)C(=O)N[C@H](C(N)=O)[C@@H](C)O [ALT-801, pemvidutide]
1: TEAE Nausea; Mild; n (M1 1.2 mg (N = 7)) | TEAE Nausea; Moderate; n (M1 1.2 mg (N = 7)) | TEAE Vomiting; Mild; n (M1 1.2 mg (N = 7))
(0.0%): TEAE Injection site bruising; Mild; % (M1 1.2 mg (N = 7)) | TEAE Injection site bruising; Moderate; % (M1 1.2 mg (N = 7)) | TEAE Injection site bruising; PLT; % (M1 1.2 mg (N = 7)) | TEAE Injection site bruising; Severe; % (M1 1.2 mg (N = 7)) | TEAE Injection site dermatitis; Mild; % (M1 1.2 mg (N = 7)) | TEAE Injection site dermatitis; Moderate; % (M1 1.2 mg (N = 7)) | TEAE Injection site dermatitis; PLT; % (M1 1.2 mg (N = 7)) | TEAE Injection site dermatitis; Severe; % (M1 1.2 mg (N = 7)) | TEAE Nausea; PLT; % (M1 1.2 mg (N = 7)) | TEAE Nausea; Severe; % (M1 1.2 mg (N = 7)) | TEAE Palpitation; Mild; % (M1 1.2 mg (N = 7)) | TEAE Palpitation; Moderate; % (M1 1.2 mg (N = 7)) | TEAE Palpitation; PLT; % (M1 1.2 mg (N = 7)) | TEAE Palpitation; Severe; % (M1 1.2 mg (N = 7)) | TEAE Peripheral swelling; Mild; % (M1 1.2 mg (N = 7)) | TEAE Peripheral swelling; Moderate; % (M1 1.2 mg (N = 7)) | TEAE Peripheral swelling; PLT; % (M1 1.2 mg (N = 7)) | TEAE Peripheral swelling; Severe; % (M1 1.2 mg (N = 7)) | TEAE Rectal haemorrhage; Mild; % (M1 1.2 mg (N = 7)) | TEAE Rectal haemorrhage; Moderate; % (M1 1.2 mg (N = 7)) | TEAE Rectal haemorrhage; PLT; % (M1 1.2 mg (N = 7)) | TEAE Rectal haemorrhage; Severe; % (M1 1.2 mg (N = 7)) | TEAE Tachycardia; Mild; % (M1 1.2 mg (N = 7)) | TEAE Tachycardia; Moderate; % (M1 1.2 mg (N = 7)) | TEAE Tachycardia; PLT; % (M1 1.2 mg (N = 7)) | TEAE Tachycardia; Severe; % (M1 1.2 mg (N = 7)) | TEAE Tooth impacted; Mild; % (M1 1.2 mg (N = 7)) | TEAE Tooth impacted; Moderate; % (M1 1.2 mg (N = 7)) | TEAE Tooth impacted; PLT; % (M1 1.2 mg (N = 7)) | TEAE Tooth impacted; Severe; % (M1 1.2 mg (N = 7)) | TEAE Toothache; Mild; % (M1 1.2 mg (N = 7)) | TEAE Toothache; Moderate; % (M1 1.2 mg (N = 7)) | TEAE Toothache; PLT; % (M1 1.2 mg (N = 7)) | TEAE Toothache; Severe; % (M1 1.2 mg (N = 7)) | TEAE Vessel puncture site pain; Mild; % (M1 1.2 mg (N = 7)) | TEAE Vessel puncture site pain; Moderate; % (M1 1.2 mg (N = 7)) | TEAE Vessel puncture site pain; PLT; % (M1 1.2 mg (N = 7)) | TEAE Vessel puncture site pain; Severe; % (M1 1.2 mg (N = 7)) | TEAE Vomiting; Moderate; % (M1 1.2 mg (N = 7)) | TEAE Vomiting; PLT; % (M1 1.2 mg (N = 7)) | TEAE Vomiting; Severe; % (M1 1.2 mg (N = 7)) | TEAE Cough, maximum severity Mild, subjects % (M1 1.2 mg ALT-801 (N = 7))
(14.3%): TEAE Nausea; Mild; % (M1 1.2 mg (N = 7)) | TEAE Nausea; Moderate; % (M1 1.2 mg (N = 7)) | TEAE Vomiting; Mild; % (M1 1.2 mg (N = 7))
0: TEAE Infections and infestations; Severe; n (M1 1.2 mg (N = 7)) | TEAE Injection site bruising; Mild; n (M1 1.2 mg (N = 7)) | TEAE Injection site bruising; Moderate; n (M1 1.2 mg (N = 7)) | TEAE Injection site bruising; PLT; n (M1 1.2 mg (N = 7)) | TEAE Injection site bruising; Severe; n (M1 1.2 mg (N = 7)) | TEAE Injection site dermatitis; Mild; n (M1 1.2 mg (N = 7)) | TEAE Injection site dermatitis; Moderate; n (M1 1.2 mg (N = 7)) | TEAE Injection site dermatitis; PLT; n (M1 1.2 mg (N = 7)) | TEAE Injection site dermatitis; Severe; n (M1 1.2 mg (N = 7)) | TEAE Nausea; PLT; n (M1 1.2 mg (N = 7)) | TEAE Nausea; Severe; n (M1 1.2 mg (N = 7)) | TEAE Palpitation; Mild; n (M1 1.2 mg (N = 7)) | TEAE Palpitation; Moderate; n (M1 1.2 mg (N = 7)) | TEAE Palpitation; PLT; n (M1 1.2 mg (N = 7)) | TEAE Palpitation; Severe; n (M1 1.2 mg (N = 7)) | TEAE Peripheral swelling; Mild; n (M1 1.2 mg (N = 7)) | TEAE Peripheral swelling; Moderate; n (M1 1.2 mg (N = 7)) | TEAE Peripheral swelling; PLT; n (M1 1.2 mg (N = 7)) | TEAE Peripheral swelling; Severe; n (M1 1.2 mg (N = 7)) | TEAE Rectal haemorrhage; Mild; n (M1 1.2 mg (N = 7)) | TEAE Rectal haemorrhage; Moderate; n (M1 1.2 mg (N = 7)) | TEAE Rectal haemorrhage; PLT; n (M1 1.2 mg (N = 7)) | TEAE Rectal haemorrhage; Severe; n (M1 1.2 mg (N = 7)) | TEAE Tachycardia; Mild; n (M1 1.2 mg (N = 7)) | TEAE Tachycardia; Moderate; n (M1 1.2 mg (N = 7)) | TEAE Tachycardia; PLT; n (M1 1.2 mg (N = 7)) | TEAE Tachycardia; Severe; n (M1 1.2 mg (N = 7)) | TEAE Tooth impacted; Mild; n (M1 1.2 mg (N = 7)) | TEAE Tooth impacted; Moderate; n (M1 1.2 mg (N = 7)) | TEAE Tooth impacted; PLT; n (M1 1.2 mg (N = 7)) | TEAE Tooth impacted; Severe; n (M1 1.2 mg (N = 7)) | TEAE Toothache; Mild; n (M1 1.2 mg (N = 7)) | TEAE Toothache; Moderate; n (M1 1.2 mg (N = 7)) | TEAE Toothache; PLT; n (M1 1.2 mg (N = 7)) | TEAE Toothache; Severe; n (M1 1.2 mg (N = 7)) | TEAE Vessel puncture site pain; Mild; n (M1 1.2 mg (N = 7)) | TEAE Vessel puncture site pain; Moderate; n (M1 1.2 mg (N = 7)) | TEAE Vessel puncture site pain; PLT; n (M1 1.2 mg (N = 7)) | TEAE Vessel puncture site pain; Severe; n (M1 1.2 mg (N = 7)) | TEAE Vomiting; Moderate; n (M1 1.2 mg (N = 7)) | TEAE Vomiting; PLT; n (M1 1.2 mg (N = 7)) | TEAE Vomiting; Severe; n (M1 1.2 mg (N = 7))
